Test results: US20050202089A1, “Sustained-release pharmaceutical formulations containing mizolastine” (SANOFI-SYNTHELABO, priority 1996, published 2005)

Conditions: weak base

2-[[1-[1-[(4-fluorophenyl)methyl]-1H-benzimidazol-2-yl]piperid-4-yl]methylamino]-pyrimidin-4-ol [mizolastine]
pK: 5.6
